Data as given in ChEMBL document CHEMBL1145284, “Combined target-based and ligand-based drug design approach as a tool to define a novel 3D-pharmacophore model of human A3 adenosine receptor antagonists: pyrazolo[4,3-e]1,2,4-triazolo[1,5-c]pyrimidine derivatives as a key study” (J Med Chem, 2005).

Chains of the proteins cited; added tags and fusions are not shown.
UniProt P0DMS8, whole entry: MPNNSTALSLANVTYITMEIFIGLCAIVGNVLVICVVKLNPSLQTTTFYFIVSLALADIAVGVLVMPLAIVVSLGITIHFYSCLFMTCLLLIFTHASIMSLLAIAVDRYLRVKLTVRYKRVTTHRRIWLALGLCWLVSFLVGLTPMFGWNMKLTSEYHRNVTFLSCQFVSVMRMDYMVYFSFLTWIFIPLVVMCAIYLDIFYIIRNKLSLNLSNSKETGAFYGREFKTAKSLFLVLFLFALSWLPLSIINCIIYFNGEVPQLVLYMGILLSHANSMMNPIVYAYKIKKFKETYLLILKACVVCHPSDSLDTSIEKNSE

Target: Adenosine receptor A3 (Homo sapiens, UniProt P0DMS8)

For `Cn1cc2c(nc(NC(=O)NC3CCCCC3)n3nc(-c4ccco4)nc23)n1`, the Ki was 1.01 nM.
